Laboratory results taken from PubChem BioAssay AID504707 (The Scripps Research Institute Molecular Screening Center, 2011).
This is a selection; strong and weak results do not stand in their true shares. Active and inactive are the calls of the source.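 The calls were made as follows: active = percent activation above the mean of all tested compounds plus 3 SD (cut at about 19% in these data); inactive = the rest.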

Amino acid sequences for entries named in this document (tags omitted).
UniProt P00514, whole entry, looked up: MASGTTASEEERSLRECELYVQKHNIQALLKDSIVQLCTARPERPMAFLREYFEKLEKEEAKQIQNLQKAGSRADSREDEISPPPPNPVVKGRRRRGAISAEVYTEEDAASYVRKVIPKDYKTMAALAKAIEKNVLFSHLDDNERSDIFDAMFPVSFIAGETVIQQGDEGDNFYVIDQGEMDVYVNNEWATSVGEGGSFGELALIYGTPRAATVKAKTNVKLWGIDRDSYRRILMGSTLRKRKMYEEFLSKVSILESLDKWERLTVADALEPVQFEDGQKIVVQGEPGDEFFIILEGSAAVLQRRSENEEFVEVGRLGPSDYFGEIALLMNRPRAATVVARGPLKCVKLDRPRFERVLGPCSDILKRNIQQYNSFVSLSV

The compounds below were run against cAMP-dependent protein kinase type I-alpha regulatory subunit (Bos taurus) + cAMP-dependent protein kinase catalytic subunit beta (Mus musculus) (UniProt P00514+P68181) (assay: compounds dissociating PKAc from R1A subunit – biochemical, fluorescence polarization, Cy5-IP20, bovine R1A, mouse PKAc, primary screen (AID 504707;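 also: higher means more PKAc released from R1A so a rise in polarization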)). Conditions: PKA-R1A dissociation, at 11.4 µM, stronger effect = higher value, scaled: DMSO 0%, 113 µM cGMP 100%.

SMILES	activation
CCN(/C(=N/P(=O)(N1CCOCC1)N1CCOCC1)N1CCOCC1)c1ccc(OC)cc1	inactive: 1.16%
C[N+]1=C2C=CC=CC=C2SC12C([N+](=O)[O-])=CC([N+](=O)[O-])=C[C-]2[N+](=O)[O-] (configuration not stated)	inactive: 3.22%
Nc1ccc([As](=O)(O)c2ccc(N)cc2)cc1	inactive: -3.42%
CC1CCN(C(=O)Oc2c(Cl)cc(Cl)c3cccnc23)CC1	inactive: -1.62%
c1cc(-c2nn[nH]n2)ccc1-c1nn[nH]n1	inactive: -1.76%
CN(C)C(=O)OCCc1n(C)cc[n+]1C	inactive: 1.63%
CC(C)c1nc(Nc2ccccc2)n(P(=O)(N(C)C)N(C)C)n1	inactive: -1.42%
CC(C)=N/N=C(\N)N[N+](=O)[O-]	inactive: -3.01%
COc1ccc(C2=NCC(CBr)S2)cc1 (configuration not stated)	inactive: -1.44%
O=[N+]([O-])c1cc([N+](=O)[O-])c(CCNc2ccccc2)c([N+](=O)[O-])c1	inactive: 4.69%
CCc1nc2c(n1)c1c(non1O)c1c2no[n+]1[O-]	inactive: -2.97%
Cc1ccc(NP(=O)(Oc2ccccc2)Oc2ccccc2)nc1	inactive: -0.28%
CC(=O)N1C2C3N(C(C)=O)C1C1N(C(C)=O)C(C(N1C(C)=O)N3C(C)=O)N2C(C)=O	inactive: -8.69%
O=[N+]([O-])c1cccc2n[nH]nc12	inactive: 4.78%
O=[N+]([O-])c1ncn(CCn2ncnc2[N+](=O)[O-])n1	inactive: -1.25%
CC(C)(C)C(=O)NC(Sc1ccncn1)C(Cl)(Cl)Cl (configuration not stated)	inactive: -2.24%
O=C(O)CNc1ccc([As](=O)(O)O)cc1	inactive: 3.2%
COC(=O)C1(C)COP(=O)(Nc2ccccc2)OC1 (configuration not stated)	inactive: -7.61%
O=[N+]([O-])c1cccc(NC2=NCC(CBr)S2)c1 (configuration not stated)	inactive: -4.14%
O=P1(N(CCCl)CCCl)OCCCS1 (configuration not stated)	inactive: -4.94%
O=C(Nc1cc([As](=O)(O)O)ccc1O)c1ccccc1	inactive: -3.44%
Nc1cccc2ccc([As](=O)(O)O)cc12	inactive: -3.61%
CCN(N=Nc1nonc1N)c1nonc1N	inactive: 3.34%
O=P(Nc1nc2ccc(Cl)cc2s1)(c1ccccc1)c1ccccc1	inactive: -9.29%
CN(C)P(=O)(N(C)C)n1c(Nc2ccccc2)nnc1-c1ccccc1	inactive: -4.83%
CCCC1OP(N)(=O)OCC1CC (configuration not stated)	inactive: 8.14%

SMILES	activation
CC(=O)Nc1ccc([As](=O)(O)O)cc1	inactive: -9.94%
O=C(O)c1ccccc1[As](=O)(O)O	inactive: -12.3%
CN(C(=O)Cc1ccc(Cl)c(Cl)c1)[C@H]1CCCC[C@@H]1N1CCCC1	inactive: -2.51%
Cc1ccc(NP(=O)(Oc2ccccc2F)Oc2ccccc2F)nc1	inactive: -8.22%
Cc1cc(SC(NC(=O)c2ccc(F)cc2)C(Cl)(Cl)Cl)ncn1 (configuration not stated)	inactive: -3.97%
CCOP(=O)(Nc1ccccc1)OCC	inactive: -0.86%
O=C(NC(Sc1ccncn1)C(Cl)(Cl)Cl)c1ccccc1 (configuration not stated)	inactive: -9.55%
Oc1ccccc1CNc1ccccn1	inactive: 5.06%
Nc1cc(N)c2nonc2c1[N+](=O)[O-]	inactive: -1.28%
CC(C)CC(=O)NC(Sc1ccc(Cl)cc1)C(Cl)(Cl)Cl (configuration not stated)	inactive: -10.9%
Cc1ccc(N/C(=N/P(=O)(N2CCOCC2)N2CCOCC2)N2CCOCC2)cc1	inactive: -16.6%
CN(C(=O)Cc1ccc(Cl)c(Cl)c1)[C@H]1CCCC[C@H]1N1CCCC1	inactive: -5.87%
NC(=O)c1cc([N+](=O)[O-])cc([N+](=O)[O-])c1N	inactive: 3.23%
CN1CCCC(OC(=O)C(c2ccccc2)c2ccccc2)C1 (configuration not stated)	inactive: -1.96%
Clc1ccc(Cl)c(NC2=NCC(CBr)S2)c1 (configuration not stated)	inactive: -8.24%
COc1ccccc1OP(=O)(Nc1ccc(C)cn1)Oc1ccccc1OC	inactive: -3.21%
C[C@H]1OP(=O)(Oc2ccccc2)C[C@@H]2O[C@@H]21 (some centres not stated)	inactive: -11.9%
C[C@@H]1C=CCP(=O)(Oc2ccccc2)O1 (some centres not stated)	inactive: -0.72%
Cc1ccccc1CN(C)C(=O)COC(=O)C(O)(c1ccccc1)c1ccccc1	inactive: -2.65%
COC(=O)C1(C)COP(=O)(NCc2ccccc2)OC1 (configuration not stated)	inactive: -4.98%
CC(=O)c1ccc(N2CC2c2ccncc2)cc1 (configuration not stated)	inactive: -5.22%
N#C/C(=C\c1ccc(N(CCBr)CCBr)cc1)C(N)=O	inactive: 5.95%
CC(=O)Nc1ccc(Oc2c([N+](=O)[O-])cc([N+](=O)[O-])cc2[N+](=O)[O-])cc1	inactive: 3.14%
CC(=O)Nc1ccc([As](=O)(O)O)c(O)c1	inactive: -9.26%
CCOc1ccc(C2=NCC(CBr)S2)cc1 (configuration not stated)	inactive: 0.78%
O=P1(Nc2nc3ccc(Cl)cc3s2)COc2ccccc2O1 (configuration not stated)	inactive: 0.95%

SMILES	activation
CC(C)(C)C(=O)NC(Sc1ccccc1)C(Cl)(Cl)Cl (configuration not stated)	inactive: -11.7%
CCc1cc(O)c([N+](=O)[O-])c(C)c1[N+](=O)[O-]	inactive: 8.44%
CCC(=O)N1C2C3N(C(=O)CC)C1C1N(C(=O)CC)C(C(N1C(=O)CC)N3C(=O)CC)N2C(=O)CC	inactive: 6.65%
O=C(OC1CN2CCC1CC2)c1ccccc1 (configuration not stated)	inactive: 3.91%
CC(=O)NC(SC(=S)N(CC(C)C)CC(C)C)C(Cl)(Cl)Cl (configuration not stated)	inactive: -0.76%
Cc1ccc(OP(=O)(Nc2ccccn2)Oc2ccc(C)cc2)cc1	inactive: -8.68%
COC(=O)c1cc2c(s1)N=C(c1ccccc1)N(C)P2(=O)N1CCOCC1 (configuration not stated)	inactive: 10%
O=c1c2cc([N+](=O)[O-])ccc2[nH]c2c([N+](=O)[O-])cc([N+](=O)[O-])cc12	inactive: -8.83%
CN(C)C(=O)Oc1noc2ccccc12	inactive: -4.44%
CC(NC(=O)COC(=O)C(O)(c1ccccc1)c1ccccc1)c1ccccc1 (configuration not stated)	inactive: 8.36%
Cc1ccccc1OP(=O)(Nc1ccccn1)Oc1ccccc1C	inactive: -0.92%
O=C(NC1CCS(=O)(=O)C1)NP(=S)(Oc1ccccc1)Oc1ccccc1 (configuration not stated)	inactive: -16.2%
CCNC(=S)/N=C(\N)N[N+](=O)[O-]	inactive: 0.73%
O=P1(N(CCCl)CCCl)OCCC2CCCCN21 (configuration not stated)	inactive: -17%
O=[As](O)(c1ccccc1)c1ccc(O)cc1	inactive: -13%
CC(=O)NC(SC(=S)N(C)C)C(Cl)(Cl)Cl (configuration not stated)	inactive: 3.93%
O=[N+]([O-])c1ncn(CCn2cnc([N+](=O)[O-])n2)n1	inactive: -6.9%
O=[N+]([O-])c1ccc(O)c(/C=N/Nc2ccc([N+](=O)[O-])cc2[N+](=O)[O-])c1	inactive: 9.71%
O=C(OC1CN2CCC1CC2)c1cccc(Cl)c1 (configuration not stated)	inactive: -0.13%
C(Cc1nn[nH]n1)Cc1nn[nH]n1	inactive: -7.71%
Nc1ccc([As](=O)(O)c2ccc([N+](=O)[O-])cc2)cc1	inactive: 6.3%
CN(C)C1(CNC(=O)c2ccc(Cl)c(S(N)(=O)=O)c2)CCCCC1	inactive: -19.7%
O=P(Nc1ccccn1)(c1ccc(Br)cc1)c1ccc(Br)cc1	inactive: -4.94%
COc1ccc(N)c([N+](=O)[O-])c1[N+](=O)[O-]	inactive: 13%
C[C@H]1OP(=O)(Oc2ccccc2)[C@H](O)[C@H](O)[C@H]1N=[N+]=[N-] (some centres not stated)	inactive: -10.1%
O=P(Nc1nc2ccccc2s1)(c1ccccc1)c1ccccc1	inactive: 5.42%

SMILES	activation
O=P(Nc1nccs1)(c1ccccc1)c1ccccc1	inactive: -3.91%
CC(C)C(=O)NC(Sc1ccccc1)C(Cl)(Cl)Cl (configuration not stated)	inactive: -16.5%
c1nnnn1CCn1cnnn1	inactive: 3.52%
COc1ccccc1CNC(=O)COC(=O)C(O)(c1ccccc1)c1ccccc1	inactive: -7.64%
CN(C(=O)Cc1ccc(Cl)c(Cl)c1)[C@@H]1CCCC[C@H]1N1CCCC1	inactive: 8.01%
CC(C)/C=N\N=C(\N)N[N+](=O)[O-]	inactive: -7.75%
CC1(CBr)Cn2c(nc3ccccc3c2=O)S1 (configuration not stated)	inactive: -12.4%
CCOP(=O)(NC(=NC(C)c1ccccc1)NC(C)c1ccccc1)OCC (configuration not stated)	inactive: 13.2%
CCC1=CC2Cc3nc4ccc(Cl)cc4c(N)c3C(C1)C2 (configuration not stated)	inactive: -5.69%
O=P1(Nc2ccccn2)COc2ccccc2OC1	inactive: 2.27%
CCOP(=O)(Nc1ccc(C)cn1)OCC	inactive: -2.89%
CC(C)(C)C(=O)NC(Sc1ncccn1)C(Cl)(Cl)Cl (configuration not stated)	inactive: 0.17%
Clc1n[nH]nc1-c1nn[nH][15n]1	inactive: -0.38%
O=P1(N(CCCl)CCCl)NCCC(C(F)(F)F)O1 (configuration not stated)	inactive: 12.7%
O=P1(Nc2ncccn2)COc2ccccc2OC1	inactive: -4.56%
Nc1cccc([As](=O)(O)c2ccccc2)c1	inactive: 0.87%
Cc1ccc(OCC(=O)OC2CN3CCC2CC3)cc1 (configuration not stated)	inactive: -14.1%
O=[As](O)(c1cccs1)c1cccs1	inactive: -0.49%
NS(=O)(=O)c1cccc(NC(=O)COC(=O)C(O)(c2ccccc2)c2ccccc2)c1	inactive: -3.02%
O=P1(Nc2ccc(Br)cn2)COc2ccccc2OC1	inactive: 4.91%
Cc1ccc(C(=O)OC2CN3CCC2CC3)cc1 (configuration not stated)	inactive: 0.28%
CC1CCC(C(C)C)C(OP(=O)(Nc2ccccn2)c2ccccc2)C1 (configuration not stated)	inactive: -19.3%
Cc1nn(-c2ccccc2)c2c1P(=O)(N1CCOCC1)N(C)C(c1ccccc1)=N2 (configuration not stated)	inactive: -2.05%
CN(C)C1(CNC(=O)c2ccc(S(C)(=O)=O)cc2)CCCCC1	inactive: -11%
